## scFv variants of Ab-14 (heavy chain) against a SARS-CoV-2 spike peptide

Source: Li et al. 2023 (doi:10.1038/s41467-023-39022-2), MIT Lincoln Laboratory and A-Alpha Bio; data file from the FLAb repository.

The target is the same throughout: PDVDLGDISGINAS, from the HR2 region of SARS-CoV-2 spike.

Ab-14 is the parent antibody, in scFv form: VH, then a 15-residue (Gly4Ser)3 linker, then VL. The light chain is unchanged in all variants.
VH: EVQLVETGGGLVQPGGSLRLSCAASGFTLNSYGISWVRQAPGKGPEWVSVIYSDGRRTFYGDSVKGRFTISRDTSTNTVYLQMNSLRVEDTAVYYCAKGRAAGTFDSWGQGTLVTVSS
VL: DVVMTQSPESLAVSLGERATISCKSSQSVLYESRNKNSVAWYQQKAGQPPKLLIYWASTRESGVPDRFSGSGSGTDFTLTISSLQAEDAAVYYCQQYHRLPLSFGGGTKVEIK

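The parent was found by panning a naive human phage display library on the peptide. This is the validation round: designs drawn from the data on random variants, tested in the same kind of assay. Group labels follow the data file (Ctrl: baseline library sampled from a position-specific scoring matrix, with some repeated check sequences; GPLM: also part of the Gaussian process libraries; Gen: genetic algorithm; Gibbs: Gibbs sampling; a sequence that several methods proposed may carry one label only). In AlphaSeq, yeast of one mating type display the scFv and yeast of the other type display the target. The frequency of each diploid, read from paired DNA barcodes, reflects how well the two displayed proteins bind. Scores were corrected for input abundance and mapped to Kd with protein pairs of known affinity run in the same pool. There are six technical replicates.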

Positions count from residue 1 of the parent VH; V50W puts W in place of V. The read-out is the apparent dissociation constant on a log10 scale (nM): the lower, the stronger. The mean shown is taken over the replicates in which the pair was detected. An entry "ND" has no value in the source: the pair was not observed among the diploids in that replicate. This suggests poor binding but is not conclusive. A sequence measured in both rounds can read differently, since the two assays cover different ranges. Nonspecific signal, from three strains lacking the peptide, appeared in 1% of pairings of all heavy chain designs, centred on 2.08 (5% of these signals below 0.84); values are not corrected for it. Also given: how often the same scFv was detected with the empty control strains, with their mean in brackets. Where one sequence has several entries in the source, the replicates are listed entry by entry, parted by semicolons. The parent sequence was in this pool as ten entries: three were never detected, three once, and four in most replicates, with averages from 0.34 to 2.37. The authors' rule: three or more of the six replicates give a measured affinity, fewer mean a poor binder.

changes	group	replicates, log10 nM	mean log10 Kd (nM)	signal with controls
V50W	Ctrl	ND ND ND ND ND ND	ND	0/18
A101T G103A	Ctrl	ND ND ND ND ND ND	ND	0/18
F59A D62Q A101Q	Ctrl	ND ND ND ND ND ND	ND	0/18
S107V	Ctrl	ND ND 1.06 1.76 1.58 2.04	1.61	0/18
K65S G103D T104M F105K	Ctrl	ND ND ND ND ND ND	ND	0/18
T28N G99V A101E A102M	Ctrl	ND ND ND 2.53 ND ND	2.53	1/18 (1.14)
F59Q K65E	Ctrl	ND ND ND 2.44 ND ND	2.44	0/18
G61T G103L	Ctrl	ND ND ND ND ND ND	ND	0/18
G61D G99N	Ctrl	ND ND 3.03 ND ND ND	3.03	1/18 (1.74)
K65R R100S G103I S107A	Ctrl	ND ND ND ND ND ND	ND	0/18
F59S G61H S63F V64T	Ctrl	ND ND ND ND ND ND	ND	0/18
S107H	Ctrl	ND ND ND ND ND 0.13	0.13	0/18
F27E S31D R100W A101I S107T	Ctrl	ND ND ND 1.77 0.52 0.99	1.09	0/18
T28V A102I	Ctrl	ND ND ND ND ND ND	ND	0/18
G26T K65R S107I	Ctrl	ND ND ND ND ND ND	ND	0/18
S53A K65R	Ctrl	ND 0.32 0.12 -0.05 0.09 0.37	0.17	0/18
S31E Y60I G99D	Ctrl	ND ND ND ND ND ND	ND	0/18
F59G G61L G99A S107Q	Ctrl	ND 2.21 ND ND ND ND	2.21	0/18
F27E R57K F59S S63E A102T F105D	Ctrl	ND ND ND ND ND ND	ND	0/18
A101E G103F T104F	Ctrl	ND ND ND ND ND ND	ND	0/18
S35T D106W	Ctrl	ND ND ND ND ND ND	ND	0/18
G61S A101E	Ctrl+GPLM_Gibbs	0.11 -0.23 0.01 -0.51 -0.42 0.10; -0.35 0.15 0.14 0.93 0.01 0.05	0.00	1/36 (1.90)
S53A A101H	Ctrl	0.44 1.00 1.00 0.55 0.93 0.97	0.82	1/18 (1.79)
T28N S31D S35Q G61A R100Q S107Q	Ctrl	ND ND ND 1.36 1.36 ND	1.36	0/18
T28A G33S R56Q R100Y A101C	Ctrl	ND ND ND ND ND ND	ND	0/18
L29I N30L G61S	Ctrl	ND ND ND ND ND ND	ND	1/18 (1.07)
F59A R100I	Ctrl	ND ND ND ND ND ND	ND	0/18
S31E G61D A101V D106E	Ctrl	ND ND ND ND 1.14 0.67	0.90	0/18
G61Q S63R V64T	Ctrl	ND ND ND ND ND ND	ND	0/18
T28N T58V	Ctrl	ND ND ND ND ND ND	ND	1/18 (0.29)
F27L N30A R56V	Ctrl	ND ND ND ND 2.25 ND	2.25	1/18 (2.03)
S31E G61S R100N	Ctrl	1.05 0.32 1.01 -0.08 0.16 0.90	0.56	0/18
T28N S53N G61T A101H	Ctrl	ND ND ND ND ND ND	ND	0/18
G61A R100Q	Ctrl+GPLM_Gen	1.50 0.60 0.58 0.50 0.41 0.89; ND ND ND ND ND ND	0.75	0/36
F59M A101C	Ctrl	ND ND ND 1.61 ND ND	1.61	0/18
G61Q R100Q G103D	Ctrl	ND ND ND ND ND ND	ND	0/18
R56Y S63D G103A D106R S107E	Ctrl	ND ND ND ND ND ND	ND	0/18

Top 3 of the variants detected in all replicates, tightest first:

changes	group	replicates, log10 nM	mean log10 Kd (nM)	signal with controls
G61S A101E	Ctrl+GPLM_Gibbs	0.11 -0.23 0.01 -0.51 -0.42 0.10; -0.35 0.15 0.14 0.93 0.01 0.05	0.00	1/36 (1.90)
S31E G61S R100N	Ctrl	1.05 0.32 1.01 -0.08 0.16 0.90	0.56	0/18
S53A A101H	Ctrl	0.44 1.00 1.00 0.55 0.93 0.97	0.82	1/18 (1.79)